Measurements taken from PubChem BioAssay (Tox21).
“And” between values parts separate entries of the source, which are not always exact repeats. Equal entries are not always repeated. Only a part is listed here, and it is no random draw. Inconclusive results are not listed. A structure can be active in one record and inactive in another. The source made the active and inactive calls. Unless noted, calls come from the whole dose curve.

Amino acid sequences for entries named in this document (tags omitted).
UniProt P30968, whole entry: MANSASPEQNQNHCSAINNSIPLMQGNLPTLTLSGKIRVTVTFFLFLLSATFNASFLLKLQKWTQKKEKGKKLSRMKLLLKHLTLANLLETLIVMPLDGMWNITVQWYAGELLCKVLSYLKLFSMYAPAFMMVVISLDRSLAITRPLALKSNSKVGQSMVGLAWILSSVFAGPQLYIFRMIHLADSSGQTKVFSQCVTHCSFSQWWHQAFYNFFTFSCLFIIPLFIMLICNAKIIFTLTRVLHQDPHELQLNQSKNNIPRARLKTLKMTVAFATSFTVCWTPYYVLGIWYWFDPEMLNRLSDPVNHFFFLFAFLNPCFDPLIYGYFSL
UniProt Q969F8, whole entry: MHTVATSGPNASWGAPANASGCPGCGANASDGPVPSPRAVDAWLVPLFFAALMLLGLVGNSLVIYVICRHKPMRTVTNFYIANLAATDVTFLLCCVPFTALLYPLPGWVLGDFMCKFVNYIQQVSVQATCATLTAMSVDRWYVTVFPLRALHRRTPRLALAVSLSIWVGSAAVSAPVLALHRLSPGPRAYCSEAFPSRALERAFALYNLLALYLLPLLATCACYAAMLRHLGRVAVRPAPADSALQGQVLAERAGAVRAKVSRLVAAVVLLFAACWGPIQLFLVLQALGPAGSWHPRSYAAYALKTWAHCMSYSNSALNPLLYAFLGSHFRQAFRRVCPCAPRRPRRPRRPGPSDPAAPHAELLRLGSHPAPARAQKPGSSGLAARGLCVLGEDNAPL
UniProt P28223, whole entry: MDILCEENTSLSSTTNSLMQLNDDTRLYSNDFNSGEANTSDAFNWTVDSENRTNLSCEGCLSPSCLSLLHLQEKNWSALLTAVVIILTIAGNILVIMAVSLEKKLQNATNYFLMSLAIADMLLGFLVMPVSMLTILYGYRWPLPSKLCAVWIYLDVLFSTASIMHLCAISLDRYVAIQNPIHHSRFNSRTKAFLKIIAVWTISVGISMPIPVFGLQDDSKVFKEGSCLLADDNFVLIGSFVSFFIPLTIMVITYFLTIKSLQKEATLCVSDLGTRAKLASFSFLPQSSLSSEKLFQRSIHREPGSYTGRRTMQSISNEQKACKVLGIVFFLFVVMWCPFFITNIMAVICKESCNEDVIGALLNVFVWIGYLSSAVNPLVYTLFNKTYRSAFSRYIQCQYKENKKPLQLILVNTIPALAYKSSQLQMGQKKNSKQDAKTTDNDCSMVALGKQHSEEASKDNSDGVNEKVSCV
UniProt P07550, whole entry: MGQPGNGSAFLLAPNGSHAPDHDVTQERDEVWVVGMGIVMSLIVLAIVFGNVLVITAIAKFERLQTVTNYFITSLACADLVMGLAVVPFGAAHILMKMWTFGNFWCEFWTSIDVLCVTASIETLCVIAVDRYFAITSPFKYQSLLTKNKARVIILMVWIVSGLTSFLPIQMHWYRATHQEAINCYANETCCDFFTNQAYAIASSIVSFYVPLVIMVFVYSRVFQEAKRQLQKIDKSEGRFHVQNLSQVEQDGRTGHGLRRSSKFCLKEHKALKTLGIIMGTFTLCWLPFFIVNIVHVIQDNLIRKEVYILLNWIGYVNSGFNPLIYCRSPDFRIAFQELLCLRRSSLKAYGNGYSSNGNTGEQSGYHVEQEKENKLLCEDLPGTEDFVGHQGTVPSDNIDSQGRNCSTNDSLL
UniProt P14416, whole entry: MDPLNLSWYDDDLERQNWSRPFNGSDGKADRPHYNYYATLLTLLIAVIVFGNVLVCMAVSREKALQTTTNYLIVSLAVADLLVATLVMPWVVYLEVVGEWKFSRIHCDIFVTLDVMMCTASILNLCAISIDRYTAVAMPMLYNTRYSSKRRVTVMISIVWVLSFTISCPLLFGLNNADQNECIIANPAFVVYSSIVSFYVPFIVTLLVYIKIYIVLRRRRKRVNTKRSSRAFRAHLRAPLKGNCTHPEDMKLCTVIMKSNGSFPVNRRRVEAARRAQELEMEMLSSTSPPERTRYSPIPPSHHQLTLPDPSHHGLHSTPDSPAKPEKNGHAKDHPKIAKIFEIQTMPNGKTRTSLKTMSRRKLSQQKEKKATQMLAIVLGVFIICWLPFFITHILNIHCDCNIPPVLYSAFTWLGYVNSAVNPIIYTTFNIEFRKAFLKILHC

Tests used:
[1] = molecular target: Gonadotropin-releasing hormone receptor (Homo sapiens) (UniProt P30968); assay: Human gonadotropin-releasing hormone receptor (GnRHR) small molecule agonists, calcium flux assay in GnRHR-HEK293 cells (AID 1920063); conditions: calcium flux fluorescence, agonist mode, stronger effect = higher value; note: nearly all actives have a fitted effect of over 35% in size
Outline: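 GnRHR-HEK293, 1500 cells/well, 18 h 37 C/5% CO2; Ca dye 1 h 37 C; cpd pinned (DMSO), agonist mode; kinetic FL 480/540, 3 min, 1 s reads; 15 conc, n=3.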

[2] = molecular target: KiSS-1 receptor (Homo sapiens) (UniProt Q969F8); assay: Human kisspeptin (KISS1R) small molecule agonists, calcium flux assay in KISS1R-HEK293 cells (AID 1920064; active = well fitted activation curve with a large enough effect in the repeat runs)
Outline: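 Stable human KISS1R HEK293 line; 18 h plating, 37 C/5% CO2; calcium dye 1 h 37 C; compound pin transfer; kinetic fluorescence Ex/Em 480/540, 3 min.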

[3] = G protein-coupled receptor (GPCR) small molecule agonists, calcium flux assay: HEK293 wild type cell line counter screen (AID 1920065); note: potency is the fitted concentration of half-maximal effect
Outline: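 Kinetic fluorescence at Ex/Em 480/540, recorded every second over 3 min, served as the read-out after compound addition. Each compound was tested at 15 concentrations in triplicate on cells pre-loaded with calcium dye for 1 h.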

[4] = p53 small molecule agonists, cell-based qHTS assay with rat liver microsomes (AID 1963578); conditions: HCT-116 p53RE-bla, beta-lactamase ratio, 16 h
Outline: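 Metabolic activation is supplied by rat liver microsomes with NADPH (each 0.5 mg/mL final). p53RE-bla cells incubate with compound 16 h at 37 C; reporter activity is measured by LiveBLAzer fluorescence.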

[5] = p53 small molecule agonists, cell-based qHTS assay with human liver microsomes: qHTS cell viability counter screen (AID 1963579); conditions: p53RE-bla HCT-116 viability, ATP luminescence, 16 h, HLM; note: nearly all actives have a fitted effect of over 45% in size
Outline: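 After the 460/530 nm beta-lactamase read, CellTiter-Glo was added to the same wells and luminescence measured after 30 min at room temperature, giving viability of p53RE-bla cells treated 16 h with compounds plus microsomes and NADPH.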

[6] = molecular target: 5-hydroxytryptamine receptor 2A (Homo sapiens) (UniProt P28223); assay: 5-hydroxytryptamine receptor 2A (HTR2A) small molecule agonists, cell-based qHTS assay (AID 1963587); conditions: HTR2A-CHO cells, calcium flux fluorescence, agonist mode; note: nearly all actives have a fitted effect of over 30% in size
Outline: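 Kinetic calcium-flux fluorescence (2 min, 1 sec intervals) after compound addition in agonist mode. HTR2A-CHO cells were cultured 18 h, then dye-loaded 1 h at 37 C.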

[7] = molecular target: Beta-2 adrenergic receptor (Homo sapiens) (UniProt P07550); assay: Adrenergic beta2 receptor (ADRB2) small molecule antagonists, cell-based qHTS assay (AID 1963592); conditions: CHO-ADRB2 cells, isoproterenol-stimulated cAMP HTRF ratio, 0.5 h; note: nearly all actives have a fitted effect of over 50% in size
Outline: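 Cells (CHO, stable ADRB2 overexpression) incubated 18-20hr at 37C; compounds added from DMSO; agonist mix (1nM isoproterenol, 100uM IBMX, 25uM Ro-20-1724) added; 0.5hr RT; d2-cAMP and anti-cAMP-cryptate added; 1hr RT; 665/615 nm read.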

[8] = molecular target: D(2) dopamine receptor (Homo sapiens) (UniProt P14416); assay: Dopamine D2 receptor (DRD2) small molecule antagonists, cell-based qHTS assay (AID 1963595; active = well fitted inhibition curve with a large enough effect in the signal ratio in the repeat runs, with a control signal flat; the % refers to the signal ratio); conditions: HEK293-DRD2 cAMP HTRF antagonist mode
Outline: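 Antagonist mode in DRD2-HEK293 cells: after compound addition with 0.1 mM Ro20-1724, cells received quinpirole (12 nM) and NKH477 (200 nM) for 30 min at room temperature; HTRF cAMP read after 1 h detection.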

[9] = at 57.6 µM (top of the series) unless noted
[10] = at 66 µM (top of the series) unless noted
[11] = at 76.8 µM (top of the series) unless noted
[12] = at 92.4 µM (top of the series) unless noted
% is set by controls: 0 for no effect and ±100 for the full control effect.

CP(=O)(O)OCCC[Si](O)(O)O
inactive: activity change [1, 9] 0.708% | Potency [2] | Potency [3] | activation ([4]; at 66 µM (top of the series)) 1.17% | activity change, negative = cytotoxicity [5, 10] 5.58% | activation [6, 11] -0.891% | activity change, negative = inhibition ([7]; at 92.4 µM (top of the series)) -1.33% | activity change, negative = inhibition [8, 12] -2.75%

CCN(CC)CCCl
inactive: activity change [1, 9] 0.153% | Potency [2] | Potency [3] | activation ([4]; at 66 µM (top of the series)) 0.502% | activity change, negative = cytotoxicity [5, 10] 2.91% | activation [6, 11] -1.35% | activity change, negative = inhibition ([7]; at 92.4 µM (top of the series)) 2.3% | activity change, negative = inhibition [8, 12] -0.376%

Cc1ccc([N+](=O)[O-])cc1[N+](=O)[O-]
inactive: activity change [1, 9] 1.64% and -0.557% | Potency [2] | Potency [3] | activation ([4]; at 66 µM (top of the series)) -5.31% and -1.52% | activity change, negative = cytotoxicity [5, 10] 0.0779% and 0.0445% | activation [6, 11] -1.84% and -1.2% | activity change, negative = inhibition ([7]; at 92.4 µM (top of the series)) 11.5% | activity change, negative = inhibition [8, 12] 5.55%

Cc1ccc([N+](=O)[O-])c([N+](=O)[O-])c1
inactive and 43.7 µM (active): Potency [3]
inactive: activation ([4]; at 66 µM (top of the series)) -11.8% and -1.34% | activity change, negative = cytotoxicity [5, 10] -21.4% and 0.789% | activity change, negative = inhibition ([7]; at 92.4 µM (top of the series)) -0.517% and 4.82% | activity change, negative = inhibition [8, 12] 0.251% and -11.7%

COc1ccc([N+](=O)[O-])cc1[N+](=O)[O-]
inactive: activity change [1, 9] -0.161% | Potency [3] | activation ([4]; at 66 µM (top of the series)) 0.24% | activity change, negative = cytotoxicity [5, 10] -0.71% | activation [6, 11] -2.97% | activity change, negative = inhibition ([7]; at 92.4 µM (top of the series)) 0% | activity change, negative = inhibition [8, 12] -1.59%

COP(C)(=O)OC
inactive: activity change [1, 9] 0.303% and -1.71% | Potency [2] | Potency [3] | activation ([4]; at 66 µM (top of the series)) -3.41% and 0.558% | activity change, negative = cytotoxicity [5, 10] -2.25% and -17.9% | activation [6, 11] -0.813% and 4.68% | activity change, negative = inhibition ([7]; at 92.4 µM (top of the series)) 0.0763% and -7.34% | activity change, negative = inhibition [8, 12] -6.85% and -11.7%

Nc1cc([N+](=O)[O-])cc([N+](=O)[O-])c1O
inactive: activity change [1, 9] 4.72% | Potency [2] | Potency [3] | activation ([4]; at 66 µM (top of the series)) -1.27% | activity change, negative = cytotoxicity [5, 10] -18% | activation [6, 11] 1.05%

N=C(N)N[N+](=O)[O-]
inactive: activity change [1, 9] -0.238% | Potency [2] | Potency [3] | activation ([4]; at 66 µM (top of the series)) 2.6% | activity change, negative = cytotoxicity [5, 10] 13.2% | activation [6, 11] -1.34% | activity change, negative = inhibition ([7]; at 92.4 µM (top of the series)) -4.7% | activity change, negative = inhibition [8, 12] -5.34%

C/C1=C2N=C(/C=C3N=C(/C(C)=C4\[N-][C@@](C)([C@@H]5N=C1[C@](C)(CCC(=O)NC[C@@H](C)OP(=O)([O-])O[C@H]1[C@@H](O)[C@@H](n6cnc7cc(C)c(C)cc76)O[C@@H]1CO)[C@H]5CC(N)=O)[C@@](C)(CC(N)=O)[C@@H]4CCC(N)=O)[C@@](C)(CC(N)=O)[C@@H]\3CCC(N)=O)C(C)(C)[C@@H]/2CCC(N)=O.[C-]#N.[Co+3]
inactive: activity change [1, 9] -0.119% [at 26.4 µM] | Potency [2] | Potency [3] | activation ([4]; at 30.3 µM (top of the series)) 4.42% | activity change, negative = cytotoxicity [5, 10] -21.5% [at 30.3 µM] | activation [6, 11] -15.1% [at 35.6 µM] | activity change, negative = inhibition ([7]; at 42.5 µM (top of the series)) 4.82% | activity change, negative = inhibition [8, 12] 3.2% [at 42.5 µM]

CN(C)CCCl
inactive: activity change [1, 9] -0.546% | Potency [2] | Potency [3] | activation ([4]; at 66 µM (top of the series)) 0.727% | activity change, negative = cytotoxicity [5, 10] -1.1% | activation [6, 11] 2.9% | activity change, negative = inhibition ([7]; at 92.4 µM (top of the series)) -4.87% | activity change, negative = inhibition [8, 12] 3.5%

OCCSCCO
inactive: activity change ([1]; at 26.4 µM (top of the series)) -0.0855% | activity change ([1]; at 57.6 µM (top of the series)) 0.705% | Potency [2] | Potency [3] | activation ([4]; at 30.3 µM (top of the series)) -0.514% | activation ([4]; at 66 µM (top of the series)) 0.331% | activity change, negative = cytotoxicity ([5]; at 30.3 µM (top of the series)) 3.51% | activity change, negative = cytotoxicity ([5]; at 66 µM (top of the series)) -4.91% | activation ([6]; at 35.6 µM (top of the series)) -0.583% | activation ([6]; at 76.8 µM (top of the series)) -0.555% | activity change, negative = inhibition ([7]; at 42.5 µM (top of the series)) 5.82% | activity change, negative = inhibition ([7]; at 92.4 µM (top of the series)) -3.81% | activity change, negative = inhibition ([8]; at 42.5 µM (top of the series)) -13.4% | activity change, negative = inhibition ([8]; at 92.4 µM (top of the series)) 1.76%
